Measurements: patent US6627628B1, “Substituted 4-amino-2-aryl-cyclopenta[d]pyrimidines, their production and use and pharmaceutical preparations containing same” (Aventis Pharma Deutschland, GmbH, priority 1998, dated 2003)

Molecular target: T1, soluble guanylate cyclase (sGC) (Bos taurus, UniProt P16068+P19687)
T1 construct: The sGC employed had been isolated from bovine lung; from tissue; host or cells: bovine lung
T1 sequence (P19687 1-691): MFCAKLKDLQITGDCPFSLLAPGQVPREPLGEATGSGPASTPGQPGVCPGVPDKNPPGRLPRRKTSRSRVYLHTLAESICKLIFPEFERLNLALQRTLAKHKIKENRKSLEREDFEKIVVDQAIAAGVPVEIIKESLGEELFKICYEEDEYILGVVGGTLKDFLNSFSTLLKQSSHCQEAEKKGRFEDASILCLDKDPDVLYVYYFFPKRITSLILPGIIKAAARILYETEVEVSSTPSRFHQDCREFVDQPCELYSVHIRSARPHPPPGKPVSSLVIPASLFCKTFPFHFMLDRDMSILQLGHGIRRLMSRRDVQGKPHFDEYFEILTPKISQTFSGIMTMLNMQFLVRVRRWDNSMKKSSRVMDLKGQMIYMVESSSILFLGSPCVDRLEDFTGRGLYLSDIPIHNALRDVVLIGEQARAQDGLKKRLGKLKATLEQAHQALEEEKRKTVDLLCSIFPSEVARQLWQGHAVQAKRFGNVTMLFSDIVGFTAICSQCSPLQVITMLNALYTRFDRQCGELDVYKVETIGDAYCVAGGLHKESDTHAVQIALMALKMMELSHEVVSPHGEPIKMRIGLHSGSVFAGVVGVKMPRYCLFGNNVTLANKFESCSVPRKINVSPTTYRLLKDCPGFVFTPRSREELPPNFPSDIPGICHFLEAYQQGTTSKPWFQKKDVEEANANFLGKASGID
T1 sequence (P16068 1-619): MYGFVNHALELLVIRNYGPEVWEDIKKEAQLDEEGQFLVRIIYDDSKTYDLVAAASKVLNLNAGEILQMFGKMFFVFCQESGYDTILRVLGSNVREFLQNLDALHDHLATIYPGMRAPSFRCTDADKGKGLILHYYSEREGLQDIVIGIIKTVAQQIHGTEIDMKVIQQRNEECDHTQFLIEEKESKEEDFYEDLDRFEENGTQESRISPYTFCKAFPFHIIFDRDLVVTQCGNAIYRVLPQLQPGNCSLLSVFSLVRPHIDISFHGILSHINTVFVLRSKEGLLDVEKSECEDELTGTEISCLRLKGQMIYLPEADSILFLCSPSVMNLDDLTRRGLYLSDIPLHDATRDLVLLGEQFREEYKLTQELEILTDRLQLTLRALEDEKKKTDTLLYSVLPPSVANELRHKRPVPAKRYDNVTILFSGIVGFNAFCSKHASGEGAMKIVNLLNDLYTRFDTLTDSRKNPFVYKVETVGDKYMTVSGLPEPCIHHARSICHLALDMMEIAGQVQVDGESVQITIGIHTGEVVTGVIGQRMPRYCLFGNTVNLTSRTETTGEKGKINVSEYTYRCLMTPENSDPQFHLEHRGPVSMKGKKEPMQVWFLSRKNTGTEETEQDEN
Experiment: Activation of soluble guanylate cyclase (cGMP enzyme immunoassay)
Assay type: biochemical
Settings: sGC isolated from bovine lung; test substance 50 μM; 5% DMSO; 37° C., 15 to 20 minutes; [cGMP]test substance/[cGMP]control (basal enzyme activity)
Protocol: Activation of Soluble Guanylate Cyclase
The activation of soluble guanylate cyclase (sGC), which catalyzes the conversion of guanosine triphosphate (GTP) to cyclic guanosine monophosphate (cGMP) and pyrophosphate, by the compounds according to the invention was quantified with the aid of an enzyme immunoassay (EIA) from Amersham. For this, the test substances were first incubated with sGC in microtiter plates and then the quantity of the resulting cGMP was determined.
The test solutions (100 μl per well) contained 50 mM triethanolamine (TEA) buffer (pH 7.5), 3 mM MgCl2, 3 mM reduced glutathione (GSH), 0.1 mM GTP, 1 mM 3-isobutyl-1-methylxanthine (IBMX), suitably diluted enzyme solution and the test substance or, in the control experiments, solvent. The test substances were dissolved in dimethyl sulfoxide (DMSO) and the solution was diluted with DMSO/water such that the final concentration c of test substance in the test batch was 50 μM. The DMSO concentration in the test batch was 5% (v/v). The reaction was started by addition of the sGC. […] The absorption of the samples was measured at 450 nm (reference wavelength 620 nm) in a microtiter plate reading apparatus. The cGMP concentration was determined by means of a calibration curve, which was obtained under the same experimental conditions. […]

n-fold stimulation at c = 50 μM: 7 fold
Substance: 2-(4-Methylphenyl)-4-((3-pyridylmethyl)amino-6,7-dihydro-5H-cyclopenta[d]-pyrimidine [Example 44]
